PMC9194530, “Interaction of Colchicine-Site Ligands With the Blood Cell-Specific Isotype of β-Tubulin—Notable Affinity for Benzimidazoles” (Frontiers in Cell and Developmental Biology, 2022)

The chains behind the UniProt entries cited, without tags or fusion partners.
UniProt P09207, whole entry, looked up: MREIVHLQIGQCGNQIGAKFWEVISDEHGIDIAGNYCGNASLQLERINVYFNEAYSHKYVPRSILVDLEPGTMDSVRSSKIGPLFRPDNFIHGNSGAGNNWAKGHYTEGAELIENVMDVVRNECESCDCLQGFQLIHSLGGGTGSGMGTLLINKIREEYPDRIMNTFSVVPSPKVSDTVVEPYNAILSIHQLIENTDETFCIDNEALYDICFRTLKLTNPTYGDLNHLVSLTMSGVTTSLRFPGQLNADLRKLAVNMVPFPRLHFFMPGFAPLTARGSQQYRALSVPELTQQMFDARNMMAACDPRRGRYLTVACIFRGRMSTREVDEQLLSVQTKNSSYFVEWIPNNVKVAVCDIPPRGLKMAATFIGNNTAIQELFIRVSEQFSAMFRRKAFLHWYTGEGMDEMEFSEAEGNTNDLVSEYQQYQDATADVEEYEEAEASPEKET

Molecular target: CeTb, colchicine site (Gallus gallus, UniProt P09207)
Assay: Single-point MDL competitive binding inhibition screen, erythrocyte tubulin
Design: species or system chicken (Gallus gallus)
Details: 50 µM drug, 1 µM tubulin, 5 µM MDL

In the case of COc1c2c(cc3c1-c1ccc(OC)c(=O)cc1C(NC(C)=O)CC3)OCO2 (stereo not shown) [Cornigerine], the “CeTb % (inhibition of MDL binding)” value is reported as 36%.
